Measured values from ChEMBL document CHEMBL2311500, “Identification and characterization of small molecules as potent and specific EPAC2 antagonists” (J Med Chem, 2013).

Sequences of proteins named here, by UniProt entry; tags and fusion partners are left off. A change or cut given only in a name is not applied to a line headed by its entry.
UniProt Q8WZA2: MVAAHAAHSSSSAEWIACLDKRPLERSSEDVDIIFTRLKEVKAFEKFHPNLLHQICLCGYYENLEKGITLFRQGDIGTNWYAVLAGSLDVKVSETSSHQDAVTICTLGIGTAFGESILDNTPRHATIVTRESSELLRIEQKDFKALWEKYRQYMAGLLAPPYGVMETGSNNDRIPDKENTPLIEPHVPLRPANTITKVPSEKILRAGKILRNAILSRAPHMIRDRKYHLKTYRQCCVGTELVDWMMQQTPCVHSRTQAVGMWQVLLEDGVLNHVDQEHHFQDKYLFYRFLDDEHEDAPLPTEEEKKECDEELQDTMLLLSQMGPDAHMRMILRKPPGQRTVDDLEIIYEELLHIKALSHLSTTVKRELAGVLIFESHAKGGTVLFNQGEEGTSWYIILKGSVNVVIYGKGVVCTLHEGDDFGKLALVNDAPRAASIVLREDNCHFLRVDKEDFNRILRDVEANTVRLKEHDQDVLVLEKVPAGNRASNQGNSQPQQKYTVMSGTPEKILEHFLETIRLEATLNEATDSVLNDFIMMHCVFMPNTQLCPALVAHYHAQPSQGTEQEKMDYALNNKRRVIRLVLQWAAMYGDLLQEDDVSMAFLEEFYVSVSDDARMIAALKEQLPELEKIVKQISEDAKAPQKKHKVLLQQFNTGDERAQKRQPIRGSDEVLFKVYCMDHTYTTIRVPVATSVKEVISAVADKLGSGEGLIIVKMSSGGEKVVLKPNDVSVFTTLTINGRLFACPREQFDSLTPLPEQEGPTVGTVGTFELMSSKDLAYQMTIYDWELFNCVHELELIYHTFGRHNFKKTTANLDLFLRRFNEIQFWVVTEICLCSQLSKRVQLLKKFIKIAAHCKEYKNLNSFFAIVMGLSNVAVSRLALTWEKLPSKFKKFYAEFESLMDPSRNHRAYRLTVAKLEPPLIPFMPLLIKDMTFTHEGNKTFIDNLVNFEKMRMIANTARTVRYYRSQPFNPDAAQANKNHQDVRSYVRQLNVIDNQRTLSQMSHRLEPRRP

Molecular target: Rap guanine nucleotide exchange factor 4 (Homo sapiens, UniProt Q8WZA2)
Assay: Antagonist activity at recombinant EPAC2 (unknown origin) assessed 8-NBD-cAMP substrate fluorescence intensity by substrate competing assay

Structure (SMILES) | IC50
CCc1cccn1S(=O)(=O)c1ccc(Cl)cc1 | 8000 nM
Cc1cc(C)c(S(=O)(=O)n2cc(C)cc2C)c(C)c1 | 300 nM
Cc1ccc(S(=O)(=O)c2c(C)cc(C)cc2C)cc1 | 500 nM
CCc1cccn1S(=O)(=O)c1c(C)cc(C)cc1C | 500 nM
